Measurements taken from PMC7827648 (Molecules, 2021).

By UniProt entry, the sequences of proteins in these tests, tags left out.
UniProt P21397, whole entry: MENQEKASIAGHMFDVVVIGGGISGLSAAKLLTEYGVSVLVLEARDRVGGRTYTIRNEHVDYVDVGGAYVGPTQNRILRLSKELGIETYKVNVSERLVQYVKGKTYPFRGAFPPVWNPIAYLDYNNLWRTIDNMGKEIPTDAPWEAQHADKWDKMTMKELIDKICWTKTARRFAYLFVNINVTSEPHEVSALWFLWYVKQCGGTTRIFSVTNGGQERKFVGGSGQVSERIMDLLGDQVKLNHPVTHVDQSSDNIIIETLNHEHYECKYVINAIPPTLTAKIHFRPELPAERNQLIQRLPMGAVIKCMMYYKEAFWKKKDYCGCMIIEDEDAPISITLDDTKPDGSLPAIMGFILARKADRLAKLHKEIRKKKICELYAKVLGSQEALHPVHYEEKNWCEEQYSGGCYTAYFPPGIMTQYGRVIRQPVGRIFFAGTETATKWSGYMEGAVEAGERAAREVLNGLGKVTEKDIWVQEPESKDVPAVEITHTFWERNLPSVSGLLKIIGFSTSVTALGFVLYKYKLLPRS

Target: T1, human MAO A (Homo sapiens, UniProt P21397)
T1 construct: host or cells: baculovirus-infected insect cells (microsomes)
Assay type: biochemical
Conditions: human recombinant MAO A, kynuramine, mean ± SD (n = 3); read-out: IC50 hMAO A
Protocol: […]. […] […].
The inhibition of human recombinant MAO A (250 U/mg) and B (59 U/mg; microsomes from baculovirus-infected insect cells) was evaluated using the reported 96-well plate technique. on a Tecan Infinite M1000 Pro instrument (Cernusco s.N., Italy). The test compounds, at different concentrations (typically, seven scalar concentrations ranging from 30 to 0.01 μM), were preincubated 20 min at 37 °C with kynuramine used as the MAO substrate in phosphate buffer at pH 8.0 (0.39 osmolar with KCl). After addition of the enzyme and 30 min of incubation, NaOH was added and the fluorescence read at the 310/400 excitation/emission wavelength. All the experiments were performed in triplicate (data reported as mean ± SD), and IC50 values were calculated by nonlinear regression of the response/concentration (log) curve by using Prism GraphPad software (ver. 5.01).

Question: With `C#CCN(C)Cc1ccccc1` [Pargyline, reference compound] as the compound, how does the IC50 read?
Answer: Its IC50 is 10.9 ± 0.6 µM.
